Consider 1 substance from patent US7098246B2, “Natural compounds and their derivatives for the prevention and treatment of cardiovascular, hepatic and renal diseases and for cosmetic applications” (Puleva Biotech, S.A., priority 2002, dated 2006).

A short description of the data set: Absorption of hydroxytyrosol and derivatives administered orally in mice (hydroxytyrosol in plasma). The note with it: oral, oily solution, equivalent amounts (10 mg II, 13 mg III, 70 mg IX). The text has this:
Plasma was isolated from each blood sample by extraction with ethyl acetate and analysed by gas chromatography-mass spectometry.

“2-(3,4-distearyloxyphenyl) ethyl stearate [IX]”: under “15 min”, the “Hydroxytyrosol in plasma, 15 min.” value is “not detected”. Besides, the “Hydroxytyrosol in plasma, 60 min.” value (60 min) stood at 0.44 mg/L.
